Assay results from US8367069B2, “Cytotoxic T cell defined EGFR peptide and an optimized derivative peptide” (University of Pittsburgh—of the Commonwealth System of …, priority 2008, dated 2013).

Columns and labels:
PCI-30 = assay: IFN-γ ELISPOT, stimulated CD8+ T cells against PCI-30 head and neck tumor cells; format: cell-based, human; conditions: substance added to CTL plus PCI-30 cells
Method: PBMCs were isolated by density centrifugation on Ficoll-Paque™ PLUS (GE Healthcare Bio-Science AB; SE-751 84 Uppsala) and used to prepare mature DCs using methods described in the art. PBMCs were resuspended at 5×10^7/ml in AIM-V medium (Invitrogen) and were incubated for 90 min in 75-cm^2 tissue culture flasks or six-well plates (37° C.; 5% CO2). Non-adherent (T cell-enriched) cells were gently washed out with HBSS and subsequently frozen. The plastic adherent cells were cultured in AIM-V medium supplemented with 1000 units/ml rhGM-CSF and 1000 units/ml rhIL-4. […] The stimulated CD8^+ T cells were analyzed for specificity in IFN-γ ELISPOT and ^51Cr release assays at day 21 and then every 7 days thereafter.
The recognition of APCs pulsed with polypeptide (EGFR853-861 or EGFR853-861L) and head and neck tumor cells was assessed by ELISPOT assays specific for hu-IFN-γ. […]
After incubation at 37° C. in 5% CO2 for 40 hours (IFN-γ ELISPOT assays), cells were removed by washings with PBS-0.05% Tween 20 (PBS-T). Captured cytokine was detected at sites of its secretion by incubation for 4 hours with biotinylated mAb anti-hIFN-γ (7-B6-1; Mabtech) at 2 μg/ml in PBS-0.5% BSA. […] Spot numbers and spot sizes were automatically determined with the use of computer-assisted video image analysis. […]

PCI-30 SCCHN cells = assay: EGFR853-861-specific CTL recognition of mAb-treated PCI-30 SCCHN cells, IFN-γ ELISPOT; format: cell-based, human; conditions: 10 μg/mL for 18 hours at 37° C.; P≦0.05
PCI-15B tumor cells = assay: EGFR-specific cross-presentation by DC incubated with PCI-15B tumor cells, IFN-γ ELISPOT / flow cytometry; format: cell-based, human; conditions: DC incubated with cetuximab-activated NK:PCI-15B cells; 10 μg/ml
Method: DC matured under these conditions were used as targets in an IFN-γ ELISPOT using EGFR853-861-specific CTL as effectors (see FIG. 13).
DC matured for 48 hour were used as targets in an IFN-γ ELISPOT or flow cytometry quantification using EGFR853-861 specific CTL as effectors (see FIGS. 14A-B).

[1] = system: EGFR853-861-specific CD3+CD8+ T cells; assay: EGFR853-861 tetramer staining of circulating CD3+CD8+ T cells of SCCHN patients; format: in vivo, human
Method: CD8+ T cells were stained with EGFR853-861-specific tetramers to quantitate the frequency of circulating CD3^+CD8^+ T cells specific for this EGFR epitope. EGFR853-861 tetramer staining of CD3^+CD8^+ T cells was performed using flow cytometry. The negative control HIV tetramer was used to stain both cetuximab-treated and naïve SCCHN patient PBMC.

cetuximab
change in IFN-γ spots on addition to CTLs (stimulated with EGFR853-861) and PCI-30 cells (PCI-30): increased | EGFR853-861 peptide-specific CTL recognition of PCI-30 cells after incubation with mAb (PCI-30 SCCHN cells): significantly enhanced | tumor antigen (EGFR)-specific cross-presentation by DC (PCI-15B tumor cells): enhanced | frequency of EGFR-specific tetramer+ T cells in PBMC ([1]; HLA-A*0201+ cetuximab-treated vs cetuximab-naïve SCCHN patients, p<0.0022): significantly higher | numbers of EGFR853-specific T cells ([1]; subset of treated patients, as compared to healthy individuals): enhanced numbers
